The target in the assay is T1, histamine H1-receptor (Cavia porcellus, UniProt P31389).
T1 construct: from tissue; host or cells: guinea pig cerebellum membranes
The assay is described as follows: Binding to histaminergic receptors (3H-pyrilamine binding). Also noted: species or system guinea pig. The protocol: Briefly, membranes from guinea pig cerebellum are incubated with ^3H-pyrilamine and varying concentrations of the test compound(s). The specific binding of the radioactive ligand to the receptor is defined as the difference between total binding and nonspecific binding, determined in the presence of an excess of unlabelled ligand. The results are expressed as percentage of specific binding in the presence of compounds. […] These parameters are obtained by Hill equation curve fitting using Sigmaplot™ software.

By UniProt entry, the sequences of proteins in these tests, tags left out.
UniProt P31389, whole entry: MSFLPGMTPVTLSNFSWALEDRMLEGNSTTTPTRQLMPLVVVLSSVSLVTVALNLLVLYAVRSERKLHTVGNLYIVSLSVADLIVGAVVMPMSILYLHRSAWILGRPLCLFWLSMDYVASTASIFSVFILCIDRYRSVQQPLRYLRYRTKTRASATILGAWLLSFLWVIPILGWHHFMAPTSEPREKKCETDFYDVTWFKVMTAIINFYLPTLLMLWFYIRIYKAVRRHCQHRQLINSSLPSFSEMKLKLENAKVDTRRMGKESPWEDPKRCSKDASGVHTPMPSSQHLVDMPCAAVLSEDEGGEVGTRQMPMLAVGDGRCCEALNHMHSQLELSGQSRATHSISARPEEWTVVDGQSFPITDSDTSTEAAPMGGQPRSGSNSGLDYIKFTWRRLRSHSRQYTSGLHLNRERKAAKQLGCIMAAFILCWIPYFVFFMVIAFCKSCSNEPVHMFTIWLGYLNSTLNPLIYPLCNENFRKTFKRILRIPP

Take `CN1CCC(=C2c3ccccc3CC(=O)c3sccc32)CC1` (racemic) [ketotifen, 4-(1-methyl-4-piperidyline)-4H-benzo(4,5) cyclohepta-(1,2-b) thiophene-10-one]: the “histamine H-1 receptor antagonism / blockade” value is recorded as “histamine H-1 antagonists”.

Values taken from patent publication US7872025B2, “Optically active isomers of ketotifen and therapeutically active metabolites thereof” (Bridge Pharma, Inc., priority 1999, dated 2011).
